Experiment [1] deals with p85α subunit of PI3-kinase (bovine, full length, recombinant) (bovine, UniProt P23727). The experiment can be described thus: GST-p110 fusion pull-down from Sf9 lysate expressing p85α.
Experiment [2] has as its target p85β subunit of PI3-kinase (bovine, full length, recombinant) (bovine, UniProt P23726). The experiment can be described thus: GST-p110 fusion pull-down from Sf9 lysate expressing p85β.

B1: GST-p110 fusion protein p110-2 ([…]) (other)
chain: MPVCEFDMVKDPEVQDFRRNILNVCKEAVDLRDLNSPH[letters of about 150 residues left out]PYMNGETSTKSLWVINSALRIKILCATYVNVNIRDIDKIYVRTGIYHGGEPLCDNVNTQRVPCSNPRWNEWLNYDIYIPDLPRAARLCLSICSVKGRKGAKEEHCPLAWGNINLFDYTDTLVSGKMALNLWPVPHGLEDLLNP
Regarding B1, the binding result in experiment [1] and in experiment [2] was “no binding” throughout.

The values are drawn from patent US5741689, “Methods to inhibit serine kinase activity and to alter intersubunit binding activity of phosphatidylinositol 3-kinase, and serine kinase active sequence of the same” (Ludwig Institute for Cancer Research, dated 1998).
